{"sequences": {"note": "Sequences of proteins named here, by UniProt entry; tags and fusion partners are left off. Residues count along the entry.", "UniProt O42275, 24-633": "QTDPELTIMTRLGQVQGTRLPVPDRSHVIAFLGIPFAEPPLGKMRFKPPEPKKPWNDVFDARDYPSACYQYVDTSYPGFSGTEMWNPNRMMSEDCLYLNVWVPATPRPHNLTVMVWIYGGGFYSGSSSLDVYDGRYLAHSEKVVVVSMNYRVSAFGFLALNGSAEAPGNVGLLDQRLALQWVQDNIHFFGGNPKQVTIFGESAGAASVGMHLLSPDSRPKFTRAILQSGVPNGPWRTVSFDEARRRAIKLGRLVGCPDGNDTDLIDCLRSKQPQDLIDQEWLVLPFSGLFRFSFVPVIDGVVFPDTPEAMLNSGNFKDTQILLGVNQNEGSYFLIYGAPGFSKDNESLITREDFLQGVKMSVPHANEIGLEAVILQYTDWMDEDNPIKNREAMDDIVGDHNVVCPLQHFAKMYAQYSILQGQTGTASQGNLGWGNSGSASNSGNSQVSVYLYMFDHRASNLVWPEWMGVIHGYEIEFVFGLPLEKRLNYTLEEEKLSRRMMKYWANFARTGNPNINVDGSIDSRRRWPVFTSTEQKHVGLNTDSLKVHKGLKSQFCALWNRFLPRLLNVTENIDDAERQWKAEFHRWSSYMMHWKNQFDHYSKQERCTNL"}, "source": "paper PMC4139341", "about": "(PLoS ONE, 2014)", "key": {"AChE [1]": {"target": "T1, AChE (Electrophorus electricus, UniProt O42275)", "conditions": "ITC, 25°C, Tris buffer pH 8.0"}, "AChE [2]": {"target": "T1, AChE", "assay": "biochemical", "conditions": "for IC50: IC50 for AChE", "procedure": "The modified method of Ellman et al. was adopted to measure AChE activity. Briefly, 25 µl (0.3 U/ml) AChE from Electric eel fish (Electrophorus electricus) was incubated with and without different concentrations of drugs selected from Molecular Docking studies. The reaction was carried out for 15 min at 25°C. […] Total volume of the reaction was made up to 1 ml by Tris buffer, pH 8.0. ATCI hydrolysis was measured by colored product formation, 5-thio-2-nitrobenzoate anion by reaction between DTNB and thiocholine, a hydrolysis product of ATCI. The formation of the colored product was measured at 405 nm wavelength after 30 min. The background was determined from negative controls (omission of AChE enzyme).\nLineweaver-Burk double reciprocal plot was plotted in order to determine the Km. […] The Ki was calculated directly from IC50 value using Cheng-Prussoffs classical equation [45]. [drawing 1]\nThe reciprocals of reaction rate (1/v) for each inhibitor concentration were plotted against the reciprocals of the substrate concentrations (1/S)."}}, "data": [{"smiles": "CNCCCC1c2ccccc2C=Cc2ccccc21", "note": "[protriptyline]", "values": [{"measurement": "heat of binding", "setting": "AChE [1]", "result": "strongly exothermic"}, {"measurement": "Ki", "setting": "AChE [2]", "result": "~1000", "unit": "nM"}, {"measurement": "IC50", "setting": "AChE [2]; 0.05–0.8 mM concentration range of drugs", "result": "~60", "unit": "µM"}, {"measurement": "IC50", "setting": "AChE [2]; summary statement", "result": "< 150", "unit": "µM"}, {"measurement": "type of AChE inhibition", "setting": "AChE [2]; Lineweaver-Burk plot, 60 µM protriptyline", "result": "competitive inhibition"}]}]}
